Here are results for 1 molecule from patent US20240391945A1, “NUCLEIC ACID SYNTHESIS METHOD USING SEGMENT-TYPE AMIDITE” (NITTO DENKO CORPORATION, priority 2020, published 2024).

The data set is described as follows: pKa values in water of the activators. It is filed as physicochemical.

Each structure is given as a SMILES string.

As for `FC(F)(F)c1cc(-c2nn[nH]n2)cc(C(F)(F)F)c1`, the pKa in H2O stood at 3.4.
